Results: US20060004002A1 (priority 2004, published 2006)

Sequences of proteins named here, by UniProt entry; tags and fusion partners are left off.
UniProt P12931, whole entry: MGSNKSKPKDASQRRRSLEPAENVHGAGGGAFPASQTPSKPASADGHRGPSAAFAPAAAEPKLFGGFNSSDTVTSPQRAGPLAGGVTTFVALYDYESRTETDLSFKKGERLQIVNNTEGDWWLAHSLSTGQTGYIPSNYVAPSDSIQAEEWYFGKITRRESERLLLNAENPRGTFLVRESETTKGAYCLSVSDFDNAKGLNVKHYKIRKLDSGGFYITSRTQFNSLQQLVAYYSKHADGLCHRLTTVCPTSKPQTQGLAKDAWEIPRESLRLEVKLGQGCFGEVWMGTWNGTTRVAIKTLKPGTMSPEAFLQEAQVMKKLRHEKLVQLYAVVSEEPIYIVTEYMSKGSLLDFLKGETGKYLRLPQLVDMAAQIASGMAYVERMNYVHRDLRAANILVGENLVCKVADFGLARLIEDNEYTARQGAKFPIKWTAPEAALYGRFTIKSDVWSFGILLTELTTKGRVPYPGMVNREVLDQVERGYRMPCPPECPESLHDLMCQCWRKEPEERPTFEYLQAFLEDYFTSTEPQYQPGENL

Target: Recombinant human Src (Homo sapiens, UniProt P12931)
Test: Src tyrosine kinase activity assay with poly E4Y and 32P-ATP
Details: read-out: IC50 Value Src, NI = no inhibition
Description: Recombinant human Src was expressed using the baculovirus-insect cell system and purified as published (Budde et al., 1993 and 2000). Recombinant Csk and the FGF receptor (FGFr) were expressed as […] fusion proteins using the pGEX expression vector and E. coli, and purified as described (Sun & Budde, 1995).
The tyrosine kinase activity of Src, Csk and FGFr was determined using poly E4Y and ^32P-ATP. Briefly, enzymes were assayed in a reaction mixture […] consisting of 0.15 M EPPS-NaOH (pH 8.0) with 6 mM MgCl2, 0.2 mM γ^32P-ATP (0.2-0.4 mCi/μmol), 10% glycerol, 0.1% Triton X-100, and poly E4Y. Poly E4Y is a synthetic peptide whose phosphorylation is measured in this assay by the addition of the radioactively labeled phosphate from the ATP (Budde et al., 1995). For screening assays, 50 μg/ml poly E4Y was used, and for Ki determinations variable concentrations (0, 20, 30, 75, and 150 μg/ml) of poly E4Y were used. When ATP was varied (0, 50, 100 and 250 μM), poly E4Y was kept constant at 150 μg/ml.

IC50 [nM]	SMILES
4.1	CCOc1ccccc1-c1sc2c(NN=Cc3cccs3)ncnc2c1C#N
27	CCOc1ccccc1-c1sc2c(NN=Cc3ccc(F)c(Cl)c3)ncnc2c1C#N
